Biological target: huTREM1 (UniProt Q9NP99 21-205)
Assay: SPR; FIG. 1B

Chains of the proteins cited; added tags and fusions are not shown. Residues count along the entry.
UniProt Q9NP99, 21-205: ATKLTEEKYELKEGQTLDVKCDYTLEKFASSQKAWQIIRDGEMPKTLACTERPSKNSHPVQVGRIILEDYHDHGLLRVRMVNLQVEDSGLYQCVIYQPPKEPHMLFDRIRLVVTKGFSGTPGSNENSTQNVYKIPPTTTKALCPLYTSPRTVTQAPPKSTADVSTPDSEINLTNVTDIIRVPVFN

| Kd | Binder |
| --- | --- |
| 0.899 nM | mAb 0318-IgG1-Aba (antibody) heavy: not shown light: DIVLTQSPDSLAVSLGERATINCRASQSVDTFDYSFLHWYQQKPGQPPKLLIYRASNLESGVPDRFSGSGSGTDFTLTISSLQAEDVAVYYCQQSNQDPYTFGQGTKLEIKRTVAAPSVFIFPPSDEQLKSGTASVVCLLNNFYPREAKVQWKVDNALQSGNSQESVTEQDSKDSTYSLSSTLTLSKADYEKHKVYACEVTHQGLSSPVTKSFNRGEC |
| 0.889 nM | mAb 0318-IgG4-Aba (antibody) heavy: not shown light: DIVLTQSPDSLAVSLGERATINCRASQSVDTFDYSFLHWYQQKPGQPPKLLIYRASNLESGVPDRFSGSGSGTDFTLTISSLQAEDVAVYYCQQSNQDPYTFGQGTKLEIKRTVAAPSVFIFPPSDEQLKSGTASVVCLLNNFYPREAKVQWKVDNALQSGNSQESVTEQDSKDSTYSLSSTLTLSKADYEKHKVYACEVTHQGLSSPVTKSFNRGEC |
| 0.866 nM | mAb 0318-IgG1.1f (antibody) heavy: EVQLVESGGGLVQPGGSLKLSCAASGFTFSTYAMHWVRQASGKGLEWVGRIRTKSSNYATYYAASVKGRFTISRDDSKNTAYLQMNSLKTEDTAVYYCTRDMGIRRQFAYWGQGTLVTVSSASTKGPSVFPLAPSSKSTSGGTAALGCLVKDYFPEPVTVSWNSGALTSGVHTFPAVLQSSGLYSLSSVVTVPSSSLGTQTYICNVNHKPSNTKVDKRVEPKSCDKTHTCPPCPAPEAEGAPSVFLFPPKPKDTLMISRTPEVTCVVVDVSHEDPEVKFNWYVDGVEVHNAKTKPREEQYNSTYRVVSVLTVLHQDWLNGKEYKCKVSNKALPSSIEKTISKAKGQPREPQVYTLPPSREEMTKNQVSLTCLVKGFYPSDIAVEWESNGQPENNYKTTPPVLDSDGSFFLYSKLTVDKSRWQQGNVFSCSVMHEALHNHYTQKSLSLSPG light: DIVLTQSPDSLAVSLGERATINCRASQSVDTFDYSFLHWYQQKPGQPPKLLIYRASNLESGVPDRFSGSGSGTDFTLTISSLQAEDVAVYYCQQSNQDPYTFGQGTKLEIKRTVAAPSVFIFPPSDEQLKSGTASVVCLLNNFYPREAKVQWKVDNALQSGNSQESVTEQDSKDSTYSLSSTLTLSKADYEKHKVYACEVTHQGLSSPVTKSFNRGEC |

From patent US20240228615A1 (published 2024)
